Reference: publication PMC5604489

Columns and labels:
[1] = biological target: Minimal LH1 antenna complex (Rba. sphaeroides | Tch. tepidum)
[2] = biological target: WT Rba. sphaeroides LH1 antenna complex (Rba. sphaeroides) (UniProt P0C0X9)
[3] = biological target: Tch. tepidum LH1 antenna complex expressed in Rba. sphaeroides (Tch. tepidum) (UniProt D2Z0P2)
[4] = biological target: Chimeric LH1 antenna complex (Rba. sphaeroides | Tch. tepidum)

fluorescence lifetime τ1 of LH1 (energy transfer to the RC), native membranes [1]: 367 ps
fluorescence lifetime τ1 of LH1 (energy transfer to the RC), purified in β-DDM [1]: 331 ps
fluorescence lifetime τ1 of LH1 (energy transfer to the RC), native membranes [2]: 264 ps
fluorescence lifetime τ1 of LH1 (energy transfer to the RC), purified in β-DDM [2]: 295 ps
fluorescence lifetime τ2 of LH1 (energy transfer to the RC), purified in β-DDM [2]: 853 ps
fluorescence lifetime τ1 of LH1 (energy transfer to the RC), native membranes [3]: 713 ps
fluorescence lifetime τ1 of LH1 (energy transfer to the RC), purified in β-DDM, free of RCs [3]: 842 ps
fluorescence lifetime τ1 of LH1 (energy transfer to the RC), native membranes [4]: 313 ps
fluorescence lifetime τ1 of LH1 (energy transfer to the RC), purified in β-DDM [4]: 314 ps
Substance: Rba. sphaeroides reaction centre (from UniProt P0C0Y7 1-260; P0C0Y9 1-308; P0C0Y8 1-282) (complex)
